Article PMC3111596 (Biochemistry, 2011)

Type: physicochemical
Settings: 50 mM Tris-HCl pH 7.5, 100 mM NaCl, 35 mM β-mercaptoethanol

tetrahydrofolate [THF]
Time protected from oxidation: ≥ 6 h
